For orientation: IC50 means the point on the concentration scale where inhibition reaches its midpoint. A higher IC50 goes with lower potency.

The chains behind the UniProt entries cited, without tags or fusion partners. Where a name states a change or a piece, a line headed by the entry shows the natural chain unless it says otherwise.
UniProt P49840: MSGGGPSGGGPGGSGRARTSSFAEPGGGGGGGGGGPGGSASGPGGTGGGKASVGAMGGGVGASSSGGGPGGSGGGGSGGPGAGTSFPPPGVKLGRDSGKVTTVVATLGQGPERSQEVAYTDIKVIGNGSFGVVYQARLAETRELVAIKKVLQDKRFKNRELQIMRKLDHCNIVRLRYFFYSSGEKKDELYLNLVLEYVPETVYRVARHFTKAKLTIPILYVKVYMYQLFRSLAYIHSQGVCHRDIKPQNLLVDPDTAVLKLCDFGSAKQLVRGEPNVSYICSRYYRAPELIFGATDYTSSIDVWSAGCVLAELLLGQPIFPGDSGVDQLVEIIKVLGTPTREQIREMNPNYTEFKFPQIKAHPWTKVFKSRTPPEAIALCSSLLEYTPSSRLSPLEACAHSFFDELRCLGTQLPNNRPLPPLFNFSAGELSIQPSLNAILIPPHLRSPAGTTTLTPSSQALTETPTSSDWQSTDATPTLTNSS

In this test the target is GSK3α (Homo sapiens, UniProt P49840). Description: biochemical.
Compound `CC1(C)CC(=O)C2=C(C1)Nc1n[nH]cc1[C@@]2(C)c1ccccc1` (stereo in doubt) [Compound 109] registered an IC50 of 9840 nM.
For `CC1(C)CC(=O)C2=C(C1)Nc1n[nH]cc1[C@]2(C)c1ccccc1` (stereo in doubt) [Compound 108] the value was 53 nM; for `CC1(C)CC(=O)C2=C(C1)Nc1n[nH]cc1C2(C)c1ccccc1` (racemic) [Compound 107], 360 nM.

Source of the values: patent publication US20160375006A1 (published 2016).
